Values quoted from earlier work as cited in US9149445B2, “Inhibition of glycerol-3-phosphate acyltransferase (GPAT) and associated enzymes for treatment of viral infections” (THE TRUSTEES OF PRINCETON UNIVERSITY, priority 2009, dated 2015).

Biological target: mTOR (Homo sapiens, UniProt P42345)
Settings: selective mTOR inhibitors; cited from earlier work

Structure (SMILES): O=C(Nc1ccc(-c2nc(N3CC4CCC(C3)O4)c3sccc3n2)cc1)NC1CC1
- pIC50: 9.15

pIC50: −log10 of the molar value.
